Target: GST-tagged ROR gamma ligand binding domain (LBD) (Homo sapiens, UniProt P51449)
Assay: TR-FRET assay for ROR gamma (LanthaScreen co-activator peptide recruitment)

By UniProt entry, the sequences of proteins in these tests, tags left out. Residues count along the entry.
UniProt P51449, 269-508 limits assumed: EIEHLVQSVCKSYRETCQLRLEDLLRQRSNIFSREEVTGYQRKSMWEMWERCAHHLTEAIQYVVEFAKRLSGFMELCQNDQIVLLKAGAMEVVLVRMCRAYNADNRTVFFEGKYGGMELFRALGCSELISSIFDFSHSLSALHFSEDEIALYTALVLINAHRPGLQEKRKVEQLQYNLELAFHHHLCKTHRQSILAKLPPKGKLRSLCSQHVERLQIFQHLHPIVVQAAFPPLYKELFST

## CCS(=O)(=O)c1ccc(CC(=O)Nc2ccc3c(c2)nc(C(C)(C)Oc2ccc(F)cc2F)n3C)cc1
Compound 1 μM, TR-FRET ratio 520/495, percent of control
  % Inhibition at 1 μM: 82.41%
Compound 10 μM, TR-FRET ratio 520/495, percent of control
  % Inhibition at 10 μM: 87.38%
read-out: IC50 value, class symbols, from dose response curve
  IC50: 50 to 100 nM

— patent publication US9718817B2, “Aryl and heteroaryl ether compounds as ROR gamma modulators” (Glenmark Pharmaceuticals S.A., priority 2014, dated 2017)
